A short description of the series: Pharmacokinetic test of beclomethasone-propionate-containing microcapsule samples of different particle sizes (Test 1). Particulars: rabbit knee joint injection, 1 mg in terms of beclomethasone propionate, 1st day after administration (FIG. 1).

The record followed here is patent publication US6428804B1, “Intra-articular preparation for the treatment of arthropathy” (SSP Co., Ltd., priority 1997, dated 2002).

Regarding “beclomethasone propionate [bulk powder of beclomethasone propionate]”, the “amount of beclomethasone propionate in the synovium and its peripheral tissue” value was “substantially no beclomethasone propionate had migrated”.
